Results from PubChem BioAssay (Tox21).
The entries are a selection whose mix differs from that of the whole data set. The source made the active and inactive calls. The call rests on the fitted dose curve; in most records, active means well fitted activation curve with a large enough effect in the repeat runs; inconclusive means weak or mixed curves; inactive means flat fitted curve, though single readings scatter.

Protein sequences, listed by entry. Tags and fused reporters are not part of them.
UniProt Q969F8, whole entry, looked up: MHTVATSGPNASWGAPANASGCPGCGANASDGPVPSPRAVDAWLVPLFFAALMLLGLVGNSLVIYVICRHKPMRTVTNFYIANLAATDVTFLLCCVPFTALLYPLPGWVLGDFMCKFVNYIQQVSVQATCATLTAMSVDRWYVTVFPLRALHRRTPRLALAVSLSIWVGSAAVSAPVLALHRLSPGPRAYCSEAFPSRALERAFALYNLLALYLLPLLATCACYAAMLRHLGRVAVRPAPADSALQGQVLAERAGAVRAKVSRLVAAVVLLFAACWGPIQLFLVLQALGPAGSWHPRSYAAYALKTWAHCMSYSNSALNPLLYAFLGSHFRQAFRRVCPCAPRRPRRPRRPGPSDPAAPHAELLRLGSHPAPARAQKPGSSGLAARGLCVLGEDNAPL

Target: KiSS-1 receptor (Homo sapiens) (UniProt Q969F8)
Test: Human kisspeptin (KISS1R) small molecule agonists, calcium flux assay in KISS1R-HEK293 cells (AID 1920064)
Settings: KISS1R-HEK293, calcium flux fluorescence, agonist; series mostly up to 76.8 µM; activation: at the top concentration
From the text: National Center for Advancing Translational Sciences [NCATS]
Division of Preclinical Innovation [DPI]
U.S. Environmental Protection Agency [EPA]
National Institutes of Environmental Health Sciences [NIEHS]
National Toxicology Program [NTP]
U.S. Food and Drug Administration [FDA]
Kisspeptin and its receptor KISS1R play key roles in mammalian reproduction due to their involvement in the onset of puberty and control of the hypothalamic-pituitary-gonadal axis such as regulates GnRH release from the hypothalamus. The kisspeptin/KISS1R system also plays a direct role in peripheral organs (including the ovary, testis, uterus, and placenta) and is implicated in reproductive diseases such as miscarriage and polycystic ovary syndrome (PCOS). Abnormal KISS1R activity is associated with abnormal puberty, infertility, endometriosis, and hormone-dependent tumors. The KISS1 receptor (KISS1R, also called GPR54), a G-protein-coupled receptor (GPCR), acts (through phospholipase C) to increase intracellular inositol trisphosphate and then release intracellular calcium stores. Cell-based KISS1R-HEK293 assay is using HEK293 cells that have been genetically engineered to express the human KISS1R, which activity can be measured by calcium signaling. A compound/drug can activate (agonist) KISS1R that can be monitored by levels of intracellular calcium.
KISS1R-HEK293 cells developed by Codex Corp contain human KISS1R gene, which was stably integrated into HEK 293 cells. The compound activation can be detected by fluorescence intensity via calcium flux assay. This cell line has been used to screen the Tox21 10K compound library to identify agonists of KISS1R.
KISS1R-Hek293 cells were dispensed at 1500 cells/4uL/well in 1536-well black wall/clear bottom plates using a multidrop dispenser. After the assay plates were incubated at a 37 C/5% CO2 incubator for 18 hours, 4 microL of Calcium Dye Solution was added to each well. The plates were incubated at 37 C for 1 hour. And then 23 nL of compounds dissolved in DMSO, positive controls, or DMSO only was transferred to the assay plate by a pin tool station. The fluorescence intensity in the plates was measured using FDSS 7000EX kinetic plate reader with a filter set of Ex/Em=480/540 for 3 min at 1 sec intervals. Each test compound was measured at 15 concentrations and in triplicates.
On the % scale 0 is the no-effect control and ±100 the full control effect.

Compound	activation	Potency
O=C(Cl)OCCOC(=O)Cl	inactive: -2.66%	–
CCCCCCCCCCCCCC[P+](CCCCCC)(CCCCCC)CCCCCC	inactive: 21.8%	–
Cc1cc([N+](=O)[O-])cc([N+](=O)[O-])c1O	–	inactive
CCCCOP(OCCCC)OCCCC	inactive: -3.02%	–
O=P(Cl)(Oc1ccccc1)Oc1ccccc1	inactive: -3.47%	–
O=P(Cl)(Cl)c1ccccc1	inactive: -1.34%	–
COP(=S)(Cl)OC	inactive: 3.61%	–
CCCCC(CC)CO[P+](=O)OCC(CC)CCCC (centres undefined)	inactive: 5.68%	–
CCNC(C)Cc1ccc2c(c1)OCO2 (centres undefined)	inactive: 1.31%	–
CC(C)CCCCCCCOP(OCCCCCCCC(C)C)Oc1ccccc1	inactive: 0.513%	–
CCCCO[P+](=O)OCCCC	–	inactive
COC(=O)Cl	inactive: -4.21%	–
CCC(C)(OOC(C)(C)C)OOC(C)(C)C	inactive: 1.48% [at 15.8 µM]	–
N#CSc1ccc([N+](=O)[O-])cc1[N+](=O)[O-]	inactive: 18.2%	–
CC(C)OP(=S)(OC(C)C)SCCNS(=O)(=O)c1ccccc1	inactive: -0.992%	–
O=[P+](Oc1ccccc1)Oc1ccccc1	inactive: -0.477%	–
CN(C(=O)Cc1ccc(Cl)c(Cl)c1)[C@H]1CC[C@@]2(CCCO2)C[C@@H]1N1CCCC1	inactive: -0.292% [at 35.3 µM]	–
ClP(Cl)c1ccccc1	inactive: 7.46%	–
CN(N=O)C(=N)N[N+](=O)[O-]	inactive: 1.21%	–
Cc1cc([N+](=O)[O-])c(O)c([N+](=O)[O-])c1	inactive: -2.29%	–
O=[N+]([O-])c1ccc([N+](=O)[O-])cc1	inactive: 4.72%	–
CN(C(=O)Cc1cccc2occc12)[C@H]1CC[C@@]2(CCCO2)C[C@@H]1N1CCCC1	inactive: 0.351%	–
O=[N+]([O-])c1ccc(S(=O)(=O)O)c([N+](=O)[O-])c1	inactive: 2.55%	–
CN(C(=O)Cc1ccccc1)[C@H]1CC[C@@]2(CCCO2)C[C@@H]1N1CCCC1	inactive: 0.14% [at 35.3 µM]	–
CCOC(=O)Cl	inactive: 2.31%	–
O=C(Cl)Oc1ccccc1	inactive: -1.84%	–
CCOP(=S)(CC)Sc1ccccc1 (centres undefined)	inactive: 0.143%	–
O=[p+]1oc2ccccc2c2ccccc21 (centres undefined)	inactive: -1.06%	–
NC(=O)Nc1ccc([As](=O)(O)O)cc1	–	inactive
